Legend:
[1] = target: T1, fat cell β receptor (β3A -adrenergic receptor) (Rattus norvegicus, UniProt P26255); experiment: Inhibition of BRL 37344-induced cAMP accumulation in transfected CHO cells; assay type: cell-based; conditions: read-out: inhibition of BRL 37344-induced cAMP accumulation
T1 construct: expressed in transfected cells
T1 sequence (P26255 1-400): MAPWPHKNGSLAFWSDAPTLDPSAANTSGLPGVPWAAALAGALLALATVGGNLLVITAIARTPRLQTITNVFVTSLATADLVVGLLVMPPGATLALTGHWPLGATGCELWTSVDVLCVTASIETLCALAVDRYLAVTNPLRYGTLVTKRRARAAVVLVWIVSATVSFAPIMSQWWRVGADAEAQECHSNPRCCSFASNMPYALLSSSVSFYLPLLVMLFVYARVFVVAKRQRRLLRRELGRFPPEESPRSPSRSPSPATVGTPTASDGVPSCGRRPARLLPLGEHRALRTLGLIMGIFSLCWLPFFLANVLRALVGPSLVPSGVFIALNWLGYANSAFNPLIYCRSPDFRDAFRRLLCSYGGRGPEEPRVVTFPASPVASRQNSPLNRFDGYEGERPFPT
Excerpt: Using a protocol for cotransfection of CHO cells (a 1.5 kb fragment was excised from pBluescript using Saci (present in the multiple cloning site of the vector) and BamHI and inserted into the Sac/BamH/sites of PSVL (Pharmacie). CHO-K1 cells were cotransfected with pSVL and pMSVneo (neomycin resistance plasmid) F. Z. Chung, C. D. Wang, P. C. Potter, J. C. Venter and C. M. Fraser, J. Biol. Chem. 263, 4052 (1988) using the CaPO4 precipitation technique. Stable transfectants were obtained by growth of the cells in culture medium containing Geneticin (500 μg/ml); colonies derived from single cells were isolated and expanded.

β3A -adrenergic receptor = β3A -adrenergic receptor (Rattus norvegicus, UniProt P26255); experiment: biochemical

inhibition at 100 µM [1] [%]	Kd (β3A -adrenergic receptor) [nM]	Structure (SMILES)
60		Cc1ccc(OCC(O)C(C)NC(C)C)c2c1CCC2 (centres unmarked) [118,51]
	1.3 ± 0.4	CC(C)(C)NCC(O)COc1cccc2[nH]c(C#N)c([125I])c12 (centres unmarked) [[^125 1]-ICYP, [^125 1]-iodocyanopindolol]

— patent US5418160A, “Cloned cell line expressing rat β3A adrenergic receptor” (The United States as represented by the Secretary of the …, priority 1991, dated 1995)
